IC50 data for one molecule are collected here from ChEMBL document CHEMBL5729346, “2-beta-naphthyl-acetic acid analogs as AKR1C3 inhibitors and methods of using same” (2022).

This experiment deals with T1, Aldo-keto reductase family 1 member C3 (Homo sapiens, UniProt P42330).
T1 sequence (P42330 whole entry): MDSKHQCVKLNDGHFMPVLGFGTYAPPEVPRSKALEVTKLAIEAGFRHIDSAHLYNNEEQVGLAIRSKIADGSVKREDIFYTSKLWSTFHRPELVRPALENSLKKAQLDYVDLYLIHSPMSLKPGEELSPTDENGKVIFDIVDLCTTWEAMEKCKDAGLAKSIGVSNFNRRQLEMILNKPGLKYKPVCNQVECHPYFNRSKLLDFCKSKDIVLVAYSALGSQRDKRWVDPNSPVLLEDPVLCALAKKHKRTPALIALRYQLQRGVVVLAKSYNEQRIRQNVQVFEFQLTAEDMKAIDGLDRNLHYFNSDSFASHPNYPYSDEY
The experiment is described as follows: S-Tetralol Oxidation Assay: the inhibitory potency of the individual compounds against the AKR1C isoforms was determined by monitoring the NADP+ dependent oxidation of S-tetralol catalyzed by the AKR1C enzymes using substrate concentrations at their Km values in the presence and absence of varying concentration of the inhibitors (Adeniji, et al., 2012, J Med Chem 55:2311-2323). Reaction systems (200 μL) contained 100 mM potassium phosphate buffer (pH 7.0), 4% DMSO, 200 μM NADP+, a serial dilution of compounds, S-tetralol, and AKR1C enzymes. […] The concentration of AKR1C1, 1C2, 1C3, and 1C4 was 111, 86, 95, and 552 nM, respectively. Reagents were mixed and incubated at 37° C. for 10 min followed by adding AKR1C enzymes to initiate the reaction. […] To determine the pattern of inhibition, five fixed concentrations of S-tetralol were used and four different concentrations of inhibitor were used and a gobal fit of the equations for COMP, NONCOMP and UNCOMP to the data was applied using Grafit.

For `COc1ccc2cc([C@@H](C)C(=O)O)ccc2c1`, the half-maximal inhibitory concentration (IC50) turned out to be 180 nM.
